According to patent US9539256B2 (THE BOARD OF REGENTS OF THE UNIVERSITY OF TEXAS SYSTEM, priority 2012, dated 2017):
pIC50: −log10 of the molar value. Where two headings read alike, the source gives them in different places.

By UniProt entry, the sequences of proteins in these tests, tags left out.
UniProt Q9EQZ6, whole entry: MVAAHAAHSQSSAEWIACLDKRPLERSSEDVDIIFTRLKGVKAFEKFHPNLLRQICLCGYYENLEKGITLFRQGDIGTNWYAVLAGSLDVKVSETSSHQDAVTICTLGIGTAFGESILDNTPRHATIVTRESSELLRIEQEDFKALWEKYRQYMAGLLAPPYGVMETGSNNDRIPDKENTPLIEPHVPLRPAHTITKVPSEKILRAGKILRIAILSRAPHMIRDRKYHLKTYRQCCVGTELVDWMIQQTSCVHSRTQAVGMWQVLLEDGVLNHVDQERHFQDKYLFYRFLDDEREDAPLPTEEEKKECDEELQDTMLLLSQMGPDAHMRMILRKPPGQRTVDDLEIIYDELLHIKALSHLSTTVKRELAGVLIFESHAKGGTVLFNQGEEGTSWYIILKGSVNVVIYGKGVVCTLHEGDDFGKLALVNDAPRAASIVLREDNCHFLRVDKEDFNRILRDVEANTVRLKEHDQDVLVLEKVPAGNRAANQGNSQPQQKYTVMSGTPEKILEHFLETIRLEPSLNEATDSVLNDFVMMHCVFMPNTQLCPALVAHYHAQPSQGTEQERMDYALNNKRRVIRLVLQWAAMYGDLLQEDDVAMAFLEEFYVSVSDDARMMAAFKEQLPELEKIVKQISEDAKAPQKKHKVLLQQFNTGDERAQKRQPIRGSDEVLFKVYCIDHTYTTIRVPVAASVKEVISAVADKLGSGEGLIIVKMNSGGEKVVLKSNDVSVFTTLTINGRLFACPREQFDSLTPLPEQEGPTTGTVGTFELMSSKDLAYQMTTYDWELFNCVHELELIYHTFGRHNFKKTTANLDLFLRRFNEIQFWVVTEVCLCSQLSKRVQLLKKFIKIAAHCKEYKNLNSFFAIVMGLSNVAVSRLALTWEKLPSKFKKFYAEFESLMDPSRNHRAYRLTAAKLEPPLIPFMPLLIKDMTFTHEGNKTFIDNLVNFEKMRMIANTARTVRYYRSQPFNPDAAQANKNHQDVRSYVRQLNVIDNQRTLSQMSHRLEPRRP
UniProt O95398, whole entry: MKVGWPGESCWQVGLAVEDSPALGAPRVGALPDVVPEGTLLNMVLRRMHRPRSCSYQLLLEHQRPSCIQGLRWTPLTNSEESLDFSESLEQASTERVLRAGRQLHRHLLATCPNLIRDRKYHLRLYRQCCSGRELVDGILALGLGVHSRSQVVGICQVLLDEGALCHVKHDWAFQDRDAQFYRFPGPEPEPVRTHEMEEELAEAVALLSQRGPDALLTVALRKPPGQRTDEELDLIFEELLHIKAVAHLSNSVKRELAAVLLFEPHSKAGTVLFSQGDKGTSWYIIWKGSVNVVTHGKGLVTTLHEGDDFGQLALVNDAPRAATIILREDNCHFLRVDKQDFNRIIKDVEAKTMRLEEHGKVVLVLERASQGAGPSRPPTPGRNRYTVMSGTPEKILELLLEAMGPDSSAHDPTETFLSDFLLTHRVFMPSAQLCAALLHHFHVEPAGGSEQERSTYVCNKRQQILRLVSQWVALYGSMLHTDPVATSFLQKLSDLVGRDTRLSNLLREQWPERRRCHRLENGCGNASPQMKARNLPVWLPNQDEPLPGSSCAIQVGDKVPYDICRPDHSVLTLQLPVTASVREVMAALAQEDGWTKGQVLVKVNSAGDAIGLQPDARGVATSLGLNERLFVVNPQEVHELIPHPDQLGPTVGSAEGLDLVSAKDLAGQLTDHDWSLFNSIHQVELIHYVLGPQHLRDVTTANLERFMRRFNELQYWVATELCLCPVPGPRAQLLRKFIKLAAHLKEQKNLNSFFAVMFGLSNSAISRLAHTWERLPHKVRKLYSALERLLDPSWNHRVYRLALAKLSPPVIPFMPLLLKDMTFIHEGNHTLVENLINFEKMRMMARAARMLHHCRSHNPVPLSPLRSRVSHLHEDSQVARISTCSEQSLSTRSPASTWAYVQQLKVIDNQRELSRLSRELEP
UniProt Q8WZA2, whole entry: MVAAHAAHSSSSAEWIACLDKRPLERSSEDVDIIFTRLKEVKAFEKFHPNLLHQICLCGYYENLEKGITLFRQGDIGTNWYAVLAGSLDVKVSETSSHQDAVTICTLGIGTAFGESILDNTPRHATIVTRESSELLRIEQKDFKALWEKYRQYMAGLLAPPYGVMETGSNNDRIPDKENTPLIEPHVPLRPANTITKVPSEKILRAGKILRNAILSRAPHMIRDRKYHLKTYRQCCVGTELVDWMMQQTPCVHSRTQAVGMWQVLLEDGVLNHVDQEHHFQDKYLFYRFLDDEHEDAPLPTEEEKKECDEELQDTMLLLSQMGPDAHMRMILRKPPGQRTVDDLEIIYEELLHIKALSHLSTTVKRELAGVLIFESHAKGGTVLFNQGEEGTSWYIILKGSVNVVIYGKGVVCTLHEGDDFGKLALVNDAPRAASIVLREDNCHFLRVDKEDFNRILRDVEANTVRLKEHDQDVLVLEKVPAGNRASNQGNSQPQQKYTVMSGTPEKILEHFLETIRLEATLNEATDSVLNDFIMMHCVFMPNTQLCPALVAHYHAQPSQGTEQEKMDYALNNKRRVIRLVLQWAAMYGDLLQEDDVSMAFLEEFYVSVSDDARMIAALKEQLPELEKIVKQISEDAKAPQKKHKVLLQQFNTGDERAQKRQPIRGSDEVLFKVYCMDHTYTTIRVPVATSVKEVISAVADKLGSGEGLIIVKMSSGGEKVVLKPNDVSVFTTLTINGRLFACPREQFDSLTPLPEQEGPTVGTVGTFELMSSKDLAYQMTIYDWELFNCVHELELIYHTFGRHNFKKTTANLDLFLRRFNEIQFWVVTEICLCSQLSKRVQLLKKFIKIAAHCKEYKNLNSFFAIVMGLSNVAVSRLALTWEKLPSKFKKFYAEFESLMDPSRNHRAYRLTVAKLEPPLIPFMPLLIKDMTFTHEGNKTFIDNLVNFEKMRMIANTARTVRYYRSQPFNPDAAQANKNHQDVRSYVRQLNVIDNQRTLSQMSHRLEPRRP

Tests used:
[1] = biological target: EPAC2 (UniProt Q9EQZ6); assay: 8-NBD-cAMP competition binding to EPAC2; conditions: for pIC50: read-out: Apparent IC50, competing with 8-NBD-cAMP in binding EPAC2; for Relative Potency (RA): RA = IC50, cAMP/IC50, compound
[2] = biological target: T1, EPAC1 (Homo sapiens, UniProt O95398); assay: Rap1 activation assay in HEK293/EPAC1 cells; conditions: tested form: iodide
[3] = tested on: type II PKA holoenzyme; assay: PKA counter screening, type II holoenzyme; type: biochemical; conditions: 25 μM compound; tested form: iodide
Description: (§1) Kinase activity of the type I and II PKA holoenzyme are measured spectrophotometrically in a 96-well plate with a coupled enzyme assay as described previously (Cook et al. (1982) Biochemistry 21: 5794-5799). In this assay, the formation of ADP is coupled to the oxidation of NADH by the pyruvate kinase/lactate dehydrogenase reactions so the reaction rate can be determined by following the oxidation of NADH, reflected by a decrease in absorbance at 340 nm. […] Reactions are pre-equilibrated at room temperature and initiated by adding the Kemptide substrate (final concentration 0.26 mM).

[4] = biological target: T1, EPAC1; assay: Rap1-GDP exchange (GEF) activity assay, EPAC1; conditions: tested form: iodide
[5] = tested on: type I PKA holoenzyme; assay: PKA counter screening, type I holoenzyme; type: biochemical; conditions: 25 μM compound; tested form: iodide
Description: as §1

[6] = biological target: EPAC2 (Homo sapiens, UniProt Q8WZA2); assay: Rap1 activation assay in HEK293/EPAC2 cells; conditions: pre-treatment with 10 μM compound, tested form: iodide

Nc1ccc(Nc2ccc(N)cc2S(=O)(=O)O)cc1
pIC50 [1]: 4.74

O=S(=O)(CS(=O)(=O)Oc1cc(Cl)cc(Cl)c1)Oc1cc(Cl)cc(Cl)c1
Relative Potency (RA) [1]: 5.8
pIC50 [1]: 5.17

COCCC[n+]1c(C)csc1Nc1c(C)cc(C)cc1C
007-AM induced Rap1 activation [2]: ineffective
cAMP-induced type II PKA holoenzyme activation [3]: did not significantly alter
suppressing EPAC1 GEF activity ([4]; cAMP-mediated Rap1-GDP exchange): completely ineffective
EPAC1 IC50 ([4]; suppressing EPAC1 GEF activity, 25 μM cAMP): NMA*
cAMP-induced type I PKA holoenzyme activation [5]: did not significantly alter
Relative Potency (RA) ([1]; tested form: iodide): 57
pIC50 ([1]; tested form: iodide): 6.17
007-AM induced Rap1 activation [6]: significant reduction

CCCCc1ccc(NC(=O)CSc2nc(C3CCCCC3)c(C#N)c(=O)[nH]2)c(C)c1
Relative Potency (RA) [1]: 39
pIC50 [1]: 6.00
